Experimental data taken from patent US11564987B2, “Combination immunotherapy for treatment of triple-negative breast cancer” (SLSG LIMITED LLC, priority 2018, dated 2023).

Assays:
[1] = test system: HER2 low-expressing (IHC 1+/2+) breast cancer; test: Randomized Phase IIb trial, disease-free survival and recurrence; type: in vivo, human; details: for Recurrence/Total / Recurrence/Total (%): interim analysis
Source text: In the study disclosed in Examples 1 and 2, Materials & Methods, and Figures herein, the investigators assessed the ability of the combination of Herceptin® antibody (trastuzumab) and NeuVax™ vaccine (HER2 protein E75 peptide administered with the immunoadjuvant GM-CSF) given in the adjuvant setting to prevent recurrences in NP (or NN if negative for both estrogen (ER) and progesterone (PR) receptors) breast cancer patients with tumors that express low (1+) or intermediate (2+) levels of HER2. Enrolled patients were randomized to receive trastuzumab and NeuVax™ vaccine or trastuzumab with GM-CSF alone (no NeuVax™ vaccine). The safety of the combination therapy was documented, specifically to ensure that no additive cardiac toxicity results from combination HER2-directed therapy. Efficacy has been documented by comparing the DFS and immunological responses between treatment groups. The primary efficacy endpoint is to compare DFS at 24 months between treatment groups. […] A secondary endpoint of the trial is to compare DFS at 36 months. Immunologic responses to the vaccine were also documented and correlated to clinical benefit.
The study is a multi-center, prospective, randomized, single-blinded, placebo-controlled Phase II trial of Herceptin® antibody+NeuVax™ vaccine versus Herceptin® antibody+GM-CSF alone. The target study population is NP (or NN if negative for both ER and PR) breast cancer patients with HER2 1+ and 2+ expressing tumors who are disease-free after standard of care therapy. Disease-free subjects after standard of care multi-modality therapy were screened and HLA-typed. Nelipepimut-S (formerly called E75 peptide) is a CD8-eliciting peptide vaccine that is restricted to HLA-A2+ or HLA-A3+ patients (approximately two-thirds of the US population), and has been extended to HLA-A24+ and HLA-A26+ as well.
HLA-A2+/A3+/A24+/or A26+ patients who meet all other eligibility criteria were randomized to receive trastuzumab+NeuVax™ vaccine or trastuzumab+GM-CSF alone. For both groups, trastuzumab was given every three weeks as monotherapy for one year, and was given upon completion of standard of care chemotherapy/radiotherapy. The first trastuzumab infusion was given no sooner than three weeks and no later than 12 weeks after completion of chemotherapy/radiotherapy. Trastuzumab was dosed at the recommended initial loading dose of 8 mg/kg and at recommended maintenance doses of 6 mg/kg q3wk. Trastuzumab was administered as described in Section 4.3. Patients randomized to the NeuVax vaccine arm received vaccinations of nelipepimut-S peptide (1000 mcg) and GM-CSF (250 mcg) administered intradermally every three weeks for six total vaccinations, 30-120 minutes after completion of trastuzumab infusion. The NeuVax vaccine series will begin immediately after completion of the third trastuzumab infusion. In extenuating circumstances, the first vaccination may be delayed to the fourth or fifth trastuzumab infusion with prior approval from the Principal Investigator. Those patients randomized to the GM-CSF alone arm received vaccinations of GM-CSF (250 mcg) administered in an identical manner to those receiving NeuVax vaccine. Patients were blinded as to whether they are receiving NeuVax vaccine or GM-CSF alone.
Upon completion of the vaccination series, booster inoculations (same dose and route) were administered every six months×4 for total combination (trastuzumab and NPS vaccine) treatment duration of 30 months. The first booster inoculation occurred with the final trastuzumab infusion, with subsequent boosters timed every six months from the first booster. Booster inoculations occur for patients randomized to receive nelipepimut-S/GM-CSF, as well as patients randomized to receive GM-CSF alone, and consisted of the same treatment drugs and dosing (i.e., nelipepimut-S/GM-CSF patients were boosted with nelipepimut-S/GM-CSF, while GM-CSF alone patients were boosted with GM-CSF alone). […]

[2] = test system: early-stage breast cancer with low levels of HER2; details: added to standard adjuvant chemotherapy; cited from earlier work
[3] = ITT entire study population, FIG. 5
[4] = TNBC patients (HR-negative, HER2 IHC 1+ or 2+), FIG. 7
[5] = hormone receptor-positive (HR+) patients within ITT, FIG. 6

trastuzumab [TZ]
Recurrence/Total ([1]; ITT TNBC): 12/45
Recurrence/Total (%) ([1]; ITT TNBC): (26.7) %
24-month DFS [1, 3]: 82.5%
36-month DFS [1, 3]: 82.5%
Recurrence/Total ([1]; ITT): 19/139
Recurrence/Total (%) ([1]; ITT): (13.7) %
24-month DFS [1, 4]: 69.9%
36-month DFS [1, 4]: 69.9%
24-month DFS [1, 5]: 89.7%
36-month DFS [1, 5]: 89.7%
invasive disease-free survival, result in words [2]: did not improve invasive disease-free survival
